Values quoted from earlier work in PMC7395068, “The evolution of strategies to minimise the risk of human drug-induced liver injury (DILI) in drug discovery and development” (Archives of Toxicology, 2020).
Where two headings read alike, the source gives them in different places.

Key:
human hepatocytes = settings: cited from earlier work
[1] = tested on: HepG2 cells, primary human hepatocytes; settings: cited from earlier work
[2] = in vivo; cited from earlier work
[3] = tested on: THLE or HepG2 cells, isolated mitochondria, BSEP; settings: cited from earlier work
HepG2 cells [4] = settings: cited from earlier work
HepG2 cells [5] = settings: cited from earlier work; remark: listed apart in the source
[6] = tested on: primary human hepatocytes, NIH3T3 fibroblasts, BSEP, CYP3A4; settings: cited from earlier work
[7] = tested on: HepG2 C3A spheroid, BSEP, Glu/Gal in HepG2 cells, bioactivation; settings: cited from earlier work
PHH [8] = settings: cited from earlier work
hLiMTs = settings: cited from earlier work
[9] = tested on: isolated mouse liver mitochondria; settings: cited from earlier work
[10] = tested on: THLE-Null and THLE-3A4 cells; settings: In vitro Assay; ref Gustafsson 2014; cited from earlier work
HepG2 = settings: cited from earlier work
PHH [11] = settings: cited from earlier work; remark: listed apart in the source
[12] = read-out: Human plasma Cmax; total plasma Cmax.tot, median of 9 literature references; cited from earlier work
[13] = cited from earlier work
[14] = 2D PHH, ATP, IC50 < 100 × Cmax.tot, ref Proctor et al. 2017
[15] = hLiMTs, ATP, IC50 < 100 × Cmax.tot, ref Proctor et al. 2017

N=C(N)NC(=O)c1nc(Cl)c(N)nc1N [amiloride]
Structural based (HCI) (human hepatocytes): -VE | Cluster 1-6 +VE Assay [1]: -VE

Cl.N [ammonium chloride]
Structural based (HCI) (human hepatocytes): -VE

CCC[C@@H]1C[C@@H](C(=O)N[C@@H]([C@H]2O[C@H](SC)[C@H](O)[C@@H](O)[C@H]2O)[C@H](C)Cl)N(C)C1 [clindamycin]
DILI +VE (5-8), DILI -VE (-4) [2]: +VE

COc1cc2c(c(OC)c1OC)-c1ccc(OC)c(=O)cc1[C@@H](NC(C)=O)CC2 [colchicine]
Ro2 Hybrid HRM Score [3]: -VE | Structural based (HCI) (HepG2 cells [4]): +VE | DILI +VE (5-8), DILI -VE (-4) [2]: -VE | DILI severity category [2]: Ambiguous DILI-concern | Structural based (HCI) (HepG2 cells [5]): +VE

O=P1(N(CCCl)CCCl)NCCCO1 (centres unmarked) [cyclophosphamide, reference compound]
Combined Assay [6]: -VE

O=C1CN(/N=C/c2ccc(-c3ccc([N+](=O)[O-])cc3)o2)C(O)=N1 [dantrolene]
Bayesian Machine Learning [7]: +VE | Bayesian Machine Learning DILI prediction, Williams (2019) [7]: +VE | PHH/100xCmax, Proctor (2017) (PHH [8]; [14]): -VE | hLiMTs/100xCmax, Proctor (2017) (hLiMTs; [15]): -VE

O=C(O)Cc1ccccc1Nc1c(Cl)cccc1Cl [diclofenac]
Structural based (HCI) (human hepatocytes): +VE | in vitro data EC20<=2uM [9]: +VE | Bayesian Machine Learning [7]: +VE | Bayesian Machine Learning DILI prediction, Williams (2019) [7]: +VE | Cluster 1-6 +VE Assay [1]: +VE

COc1cccc2c1C(=O)c1c(O)c3c(c(O)c1C2=O)C[C@@](O)(C(=O)CO)C[C@@H]3O[C@H]1C[C@H](N)[C@H](O)[C@H](C)O1 [doxorubicin]
Combined Assay [6]: +VE

CCN1C(=O)NC(c2ccccc2)C1=O (centres unmarked) [ethotion]
Bayesian Machine Learning [7]: -VE

CCOC(=O)c1ncn2c1CN(C)C(=O)c1cc(F)ccc1-2 [flumazenil, reference compound]
Bayesian Machine Learning [7]: -VE | Bayesian Machine Learning DILI prediction, Williams (2019) [7]: -VE | PHH/100xCmax, Proctor (2017) (PHH [8]; [14]): -VE | THLE-Null/3A4 [10]: -VE | hLiMTs/100xCmax, Proctor (2017) (hLiMTs; [15]): -VE

CNCCC(Oc1ccc(C(F)(F)F)cc1)c1ccccc1 (centres unmarked) [fluoxetine]
Ro2 Hybrid HRM Score [3]: -VE

Nc1nc(O)c2ncn(COC(CO)CO)c2n1 [ganciclovir]
Ro2 Hybrid HRM Score, In vitro Assay [3]: -VE

NC[C@H]1O[C@H](O[C@H]2[C@H](O)[C@@H](O[C@H]3O[C@H](CO)[C@@H](O)[C@H](N)[C@H]3O)[C@H](N)C[C@@H]2N)[C@H](O)[C@@H](O)[C@@H]1O [kanamycin]
Cellular toxicity (3T3 cells) [6]: -VE | Combined Assay [6]: -VE | GSH adduct HML [6]: -VE | Hepatocyte cellular toxicity [6]: -VE | MitoTox 3T3 [6]: -VE | TDI CYP3A4 [6]: -VE | hBSEP inhibition [6]: -VE

CC(=O)N1CCN(c2ccc(OCC3COC(Cn4ccnc4)(c4ccc(Cl)cc4Cl)O3)cc2)CC1 (centres unmarked) [ketoconazole, reference compound]
Cytotoxicity HepG2 48 hrs (HepG2): +VE | Cytotoxicity PHH 48 hrs (PHH [11]): +VE

CC(CCc1ccccc1)NCC(O)c1ccc(O)c(C(N)=O)c1 (centres unmarked) [labetalol]
Partition Hybrid HRM Score [3]: +VE | Ro2 Hybrid HRM Score [3]: -VE

CS(=O)(=O)CCNCc1ccc(-c2ccc3ncnc(Nc4ccc(OCc5cccc(F)c5)c(Cl)c4)c3c2)o1 [lapatinib]
Cmax [12]: 11.6 µM | Combined Assay [6]: +VE

CN(Cc1cnc2nc(N)nc(N)c2n1)c1ccc(C(=O)N[C@@H](CCC(=O)O)C(=O)O)cc1 [methotrexate, reference compound]
Combined Assay [6]: -VE

CCN(CC)CCNC(=O)c1cc(Cl)c(N)cc1OC [metoclopramide]
Structural based (HCI), In vitro Assay (human hepatocytes): -VE

Cc1cccc(C)c1OCC(C)N (centres unmarked) [mexiletine]
Ro2 Hybrid HRM Score [3]: -VE

CN(C)c1ccc(O)c2c1C[C@H]1C[C@H]3[C@H](N(C)C)C(O)=C(C(N)=O)C(=O)[C@@]3(O)C(O)=C1C2=O [minocycline]
Partition Hybrid HRM Score [3]: -VE

Nc1cc(N2CCCCC2)nc(N)[n+]1[O-] [minoxidil]
Partition Hybrid HRM Score [3]: -VE | Ro2 Hybrid HRM Score [3]: -VE | Rule of Two hybrid HRM Score ≥3, Aleo (2019) [3]: -VE

CO[C@@]12[C@H](COC(N)=O)C3=C(C(=O)C(C)=C(N)C3=O)N1C[C@@H]1N[C@@H]12 [mitomycin]
in vitro data EC20<=2uM [9]: -VE | hLiMTs ATP <100uM (hLiMTs): +VE (key: +VE: IC50 threshold of 100 µM)

CC(C)(O)c1ccccc1CC[C@@H](SCC1(CC(=O)O)CC1)c1cccc(/C=C/c2ccc3ccc(Cl)cc3n2)c1 [montelukast]
Structural based (HCI) (human hepatocytes): -VE | Ro2 Hybrid HRM Score [3]: +VE

CS(=O)(=O)Nc1ccc([N+](=O)[O-])cc1Oc1ccccc1 [nimesulide]
Structural based (HCI) (human hepatocytes): +VE | in vitro data EC20<=2uM [9]: +VE

Cc1cc2c(s1)Nc1ccccc1N=C2N1CCN(C)CC1 [olanzapine]
Bayesian Machine Learning [7]: +VE | Cellular toxicity (3T3 cells) [6]: +VE | Combined Assay [6]: -VE | GSH adduct HML [6]: +VE | Hepatocyte cellular toxicity [6]: -VE | MitoTox 3T3 [6]: -VE | TDI CYP3A4 [6]: -VE | hBSEP inhibition [6]: -VE | DILI +VE (5-8), DILI -VE (-4) [2]: +VE | DILI severity category [2]: vLess-DILI-Concern

CCN(CC)CC#CCOC(=O)C(O)(c1ccccc1)C1CCCCC1 (centres unmarked) [oxybutynin]
in vitro data EC20<=2uM [9]: +VE | Rule of Two hybrid HRM Score ≥3, Aleo (2019) [3]: -VE | Bayesian Machine Learning [7]: -VE | PHH/100xCmax, Proctor (2017) (PHH [8]): -VE | hLiMTs/100xCmax, Proctor (2017) (hLiMTs): -VE

CCCCC1C(=O)N(c2ccccc2)N(c2ccccc2)C1=O [phenylbutazone]
Structural based (HCI) (human hepatocytes): +VE | in vitro data EC20<=2uM [9]: +VE

CC(N)C(O)c1ccccc1 (centres unmarked) [phenylpropanolamine]
Structural based (HCI), In vitro Assay (human hepatocytes): -VE

NC(=O)C1CCN(CCCN2c3ccccc3Sc3ccc(Cl)cc32)CC1 [pipamazine]
DILI +VE (5-8), DILI -VE (-4) [2]: +VE

C[C@]12C=CC(=O)C=C1CC[C@@H]1[C@@H]2[C@@H](O)C[C@@]2(C)[C@H]1CC[C@]2(O)C(=O)CO [prednisolone]
Cluster 1-6 +VE Assay [1]: -VE

COc1cc(NC(C)CCCN)c2ncccc2c1 (centres unmarked) [primaquine]
Cellular toxicity (3T3 cells) [6]: +VE | Combined Assay [6]: -VE | GSH adduct HML [6]: +VE | Hepatocyte cellular toxicity [6]: -VE | MitoTox 3T3 [6]: -VE | TDI CYP3A4 [6]: -VE

CCC1(c2ccccc2)C(=O)NCNC1=O [primidone]
Structural based (HCI) (human hepatocytes): -VE | Partition Hybrid HRM Score [3]: -VE | Ro2 Hybrid HRM Score [3]: -VE | In vivo DILI [13]: -VE

CCCc1cc(=O)[nH]c(=S)[nH]1 [propylthiouracil]
in vitro data EC20<=2uM [9]: +VE

CCN(CC)CCCC(C)Nc1c2ccc(Cl)cc2nc2ccc(OC)cc12 (centres unmarked) [quinacrine]
Cluster 1-6 +VE Assay [1]: +VE

C=C[C@H]1C[N@@]2CC[C@H]1C[C@@H]2[C@@H](O)c1ccnc2ccc(OC)cc12 [quinidine]
Structural based (HCI) (human hepatocytes): +VE

C=C[C@H]1C[N@@]2CC[C@H]1C[C@H]2[C@H](O)c1ccnc2ccc(OC)cc12 [quinine]
Structural based (HCI) (human hepatocytes): +VE

Nc1nc2ccc(OC(F)(F)F)cc2s1 [riluzole]
In vivo DILI [13]: +VE | DILI +VE (5-8), DILI -VE (-4) [2]: +VE

Cc1nc2n(c(=O)c1CCN1CCC(c3noc4cc(F)ccc34)CC1)CCCC2 [risperidone]
DILI +VE (5-8), DILI -VE (-4) [2]: +VE | DILI severity category [2]: vLess-DILI-Concern

CN(CCOc1ccc(CC2SC(=O)NC2=O)cc1)c1ccccn1 (centres unmarked) [rosiglitazone]
Partition Hybrid HRM Score [3]: +VE | Ro2 Hybrid HRM Score [3]: +VE | Bayesian Machine Learning [7]: +VE

CC1=C(CC(=O)O)c2cc(F)ccc2/C1=C\c1ccc([S+](C)[O-])cc1 (centres unmarked) [sulindac]
Partition Hybrid HRM Score [3]: +VE | Ro2 Hybrid HRM Score [3]: +VE | THLE-Null/3A4 [10]: -VE

CCN1CCCC1CNC(=O)c1cc(S(N)(=O)=O)ccc1OC (centres unmarked) [sulpiride]
Cluster 1-6 +VE Assay [1]: -VE | THLE-Null/3A4 [10]: -VE

Cn1c(=O)c2[nH]cnc2n(C)c1=O [theophylline]
In vivo DILI [13]: -VE | Structural based (HCI) (HepG2 cells [5]): +VE

CN1c2ccccc2C(NCCCCCCC(=O)O)c2ccc(Cl)cc2S1(=O)=O (centres unmarked) [tianeptine]
In vivo DILI [13]: +VE

N[C@@H]1[C@H]2CN(c3nc4c(cc3F)c(=O)c(C(=O)O)cn4-c3ccc(F)cc3F)C[C@@H]12 [trovafloxacin]
DILI in vitro assay prediction, Xu (2008) (human hepatocytes): +VE
